US20260042764A1, “COMPOSITIONS AND METHODS FOR INHIBITION OF KRAS” (TheRas, Inc., priority 2022, published 2026)

Amino acid sequences for entries named in this document (tags omitted). Residues count along the entry.
UniProt P01116, 1-169 isoform 2 limits assumed: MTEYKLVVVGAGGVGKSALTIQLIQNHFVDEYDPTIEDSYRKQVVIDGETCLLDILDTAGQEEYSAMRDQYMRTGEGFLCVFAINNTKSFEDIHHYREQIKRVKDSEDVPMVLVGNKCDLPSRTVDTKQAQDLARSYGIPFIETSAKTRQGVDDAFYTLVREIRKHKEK
UniProt P01116, 2-169 isoform 2 limits assumed: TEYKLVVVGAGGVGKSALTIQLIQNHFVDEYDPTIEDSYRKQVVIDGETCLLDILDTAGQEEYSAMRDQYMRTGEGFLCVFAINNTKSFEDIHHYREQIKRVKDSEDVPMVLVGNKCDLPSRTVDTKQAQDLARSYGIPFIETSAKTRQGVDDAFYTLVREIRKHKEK
UniProt P01116, 1-169 isoform 2 G12R limits assumed: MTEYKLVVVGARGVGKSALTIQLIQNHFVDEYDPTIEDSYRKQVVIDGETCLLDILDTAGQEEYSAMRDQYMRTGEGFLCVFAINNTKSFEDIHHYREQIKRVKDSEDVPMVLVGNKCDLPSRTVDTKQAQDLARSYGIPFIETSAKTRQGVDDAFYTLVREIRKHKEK
UniProt P01116, 2-169 isoform 2 G12C limits assumed: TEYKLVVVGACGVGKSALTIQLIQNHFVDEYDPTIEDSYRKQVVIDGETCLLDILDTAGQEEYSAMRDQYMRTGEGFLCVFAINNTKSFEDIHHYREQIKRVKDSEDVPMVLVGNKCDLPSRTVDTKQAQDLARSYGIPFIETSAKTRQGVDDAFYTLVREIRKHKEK
UniProt P01116, 2-169 isoform 2 G12V limits assumed: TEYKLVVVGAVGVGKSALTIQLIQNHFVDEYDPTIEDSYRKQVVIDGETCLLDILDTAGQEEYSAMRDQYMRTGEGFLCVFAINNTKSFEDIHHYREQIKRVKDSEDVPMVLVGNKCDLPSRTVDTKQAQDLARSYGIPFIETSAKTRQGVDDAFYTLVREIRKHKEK

Legend:
RKN cells (KRAS G12V) = test: 3D Cell viability assay in RKN cells (Biological Example 6); settings: read-out: RKN 3D cell viability IC50; RKN (KRAS G12V) spheroids, 72 hours
Protocol: Biological Example 6: 3D Cell viability assay in AsPC-1, SW1900, HPAC, Capan-2, RKN, H358, HCT116, KP-2, H1573, A549, MKN1, and HT1080 cells
The inhibition of cellular viability as a result of test compound treatment in a spheroid assay was measured using the CellTiter-Glow 3D Cell Viability Assay (Promega).
On Day 1, 1000 cells per well were seeded in 150 μL of complete growth media supplemented with 10% fetal bovine serum (FBS) and incubated at 37° C., in the presence of 5% CO2 in 96-well ultra-low attachment microplates (Corning) for 48 hours undisturbed to allow spheroids to form.
Following spheroid formation, cells were treated with compounds diluted in DMSO at 0.25% final DMSO concentration. Compounds were dosed in a 9-point concentration curve with three-fold dilution between concentrations. […]
Following this incubation period, the kit-provided CTG reagent was allowed to equilibrate for 30 minutes at room temperature, 150 μL of equilibrated CTG reagent was added to each well, and the plate was sealed before shaking at 250 rpm for 10 minutes at room temperature to lyse the cells, 150 μL of lysate per well was transferred to a 96-well plate and luminescence was read on a CLARIOstar plate reader.
Data was imported into the Prism software package (Graphpad) and EC50 values were calculated using the log (inhibitor) vs, response—variable slope (Four parameters) model.

[1] = molecular target: Avi-KRAS G12R (1-169) GppNHp/RAF1 RBD-3xFLAG (52-151) (Homo sapiens, UniProt P01116, G12R); test: Raf1-KRAS G12R-GppNHP disruption HTRF assay (Biological Example 1); settings: read-out: Raf1-GppNHp-KRAS G12R disruption; KRAS G12R, GppNHp-loaded; class symbols
[2] = molecular target: Avi-KRAS G12C (2-169) GTP/RAF1 RBD-3xFLAG (51-131) (Homo sapiens, UniProt P01116, G12C); test: Raf1-KRAS G12C-GTP disruption HTRF assay (Biological Example 3); settings: read-out: Raf1-GTP-KRAS G12C disruption, GTP-loaded
Protocol: (§1) Biological Example 3: Disrupting RAS-Effector Binding HTRF Assay
(§2) A protein:protein interaction (PPI) Homogeneous Time Resolved Fluorescence (HTRF) assay was used to determine the effectiveness of compounds in disrupting KRAS protein and effector (RAF1) binding.
(§3) The HTRF assay used the following reagents and proteins: (i) 50 nM Avi-KRAS G12D (2-169) GTP/RAF1 RBD-3xFLAG (51-131): (ii) 50 nM Avi-KRAS G12C (2-169) GTP/RAF1 RBD-3xFLAG (51-131): (iii) 50 nM Avi-KRAS G12V (2-169) GTP/RAF1 RBD-3xFLAG (51-131); (iv) 50 nM Avi-KRAS WT (2-169) GTP/RAF1 RBD-3xFLAG (51-131); and (v) 75 nM 3xFLAG-RAF1 RBD (51-131)-Avi. The assay buffer included: 50 mM Tris pH 7.5 (Invitrogen, 15567-027), 100 mM NaCl (Sigma, S5150-IL), 5 mM MgCl2 (Sigma, 63069), 0.1% BSA (Sigma, A7030), 0.01% Tween 20 (Sigma, P7949), 10% DMSO (Cell Signaling, 12611). The bead buffer included: 50 mM Tris pH 7.5 (Invitrogen, 15567-027), 0.01% Tween 20 (Sigma, P7949). An assay volume of 20 μL was used in a 384 well plate-low volume format. Compound titration: 30-0.005 μM, 3x dilution series.
(§4) The HTRF assay employed the following protocol: […]
(§5) Plates were analyzed on an Envision plate reader using the following setting: Excitation 320 nm, Bandwidth 75 nm; Emission 615 nm, Bandwidth 85 nm; Gain 100%; Flashes 100; Lag 60 μs. […] Data was plotted and analyzed using Prism 8. […]

SW620 cells (KRAS G12V) = test: Cell-based pERK HTRF assay in SW620 cell (Biological Example 4)
[3] = molecular target: Avi-KRAS WT (2-169) GTP/RAF1 RBD-3xFLAG (51-131) (Homo sapiens, UniProt P01116); test: Raf1-KRAS WT-GTP disruption HTRF assay (Biological Example 3); settings: read-out: Raf1-GTP-KRAS WT disruption, GTP-loaded
Protocol: as §1, §2, §3, §4, §5

[4] = molecular target: Avi-KRAS WT (1-169) GppNHp/RAF1 RBD-3xFLAG (52-151) (Homo sapiens, UniProt P01116); test: Raf1-KRAS WT-GppNHP disruption HTRF assay (Biological Example 1); settings: read-out: Raf1-GppNHp-KRAS WT disruption; KRAS WT, GppNHp-loaded; class symbols
[5] = molecular target: Avi-KRAS G12V (2-169) GTP/RAF1 RBD-3xFLAG (51-131) (Homo sapiens, UniProt P01116, G12V); test: Raf1-KRAS G12V-GTP disruption HTRF assay (Biological Example 3); settings: read-out: Raf1-GTP-KRAS G12V disruption, GTP-loaded
Protocol: as §1, §2, §3, §4, §5

IC50 [1]: < 100 nM
IC50 [2]: < 100 nM
IC50 (SW620 cells (KRAS G12V); read-out: PERK-SW620, pERK HTRF, class symbols): < 100 nM
IC50 (SW620 cells (KRAS G12V); read-out: pERK-SW620): < 100 nM
IC50 [3]: 100 to 1000 nM
IC50 [4]: < 100 nM
IC50 [5]: 100 to 1000 nM
SMILES: CCN(c1nc(OC[C@@]23CCCN2C[C@H](F)C3)nc2c(F)c(-c3ccc(F)c4sc(N)c(C#N)c34)c(C(F)(F)F)cc12)[C@H]1CCN(C(=O)OC2COC2)C1
IC50 (RKN cells (KRAS G12V)): < 100 nM

Where two headings read alike, the source gives them in different places.
